In ChEMBL document CHEMBL6182921, “Structural Optimization of Next-Generation TRK Inhibitors against Acquired Drug Resistance Mutations for the Treatment of Solid Tumors” (J Med Chem, 2025):

Test system: BaF3
Settings: Mus musculus, dose 1.0 nmol/L, time 2.0 hrs

## C[C@@H]1CCc2ncc(F)cc2[C@H]2CCCN2c2ccn3ncc(c3n2)C(=O)N1 [SELITRECTINIB]
  inhibition: Active

Activity calls are given as the source filed them. The calls are words filed in the database; no cut-off is given here.
